The list is not random: actives were taken first. Their share in the collection is about 2.3%.
Yeast UUG start: modulators of start codon recognition fidelity in yeast. S. cerevisiae UUG-firefly luciferase reporter, luminescence/redox ratio. activity score, % at 18.7 µM. 0.13% of 350,000 active. AID 602363;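 active = replicate mean at a twofold rise or more, about +100% in these data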;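 also: firefly luciferase made from a UUG start codon reports start codon fidelity; reporter light over untreated wells divided by growth signal over untreated wells; some hits fall short of that in this replicate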
MC4R antag cAMP: blocks human MC4R cAMP signaling; P32245; MC4R-expressing cells, MTII-stimulated cAMP, LANCE TR-FRET; inhibition, % at 6.5 µM; actives 0.48% (n = 360,000); AID 540295;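 active = inhibition above its plate's cutoff, the mean of tested wells on that plate plus 3 SD, cut at about 29% in these data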;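 note: 0% = Melanotan II alone and 100% = Melanotan II plus saturating MCL0020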
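System – human MC4R-expressing U2OS cells · Also added – Melanotan II · Dosing – one concentration, 6.5 µM nominal · Timing – 30-min compound, 1-h challenge, 1-h detection, room temperature · Measured by – Eu-cAMP/anti-cAMP TR-FRET, emission 671 nm · Replicates – singlicate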
ARFGAP1 inhibitor: inhibits rat ARF GTPase activating protein 1 | Q62848 | Arfgap1-stimulated ARF1 GTP hydrolysis, GDP FP detection | inhibition, % at 16.5 µM | actives 0.26% (n = 360,000);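 active = inhibition above a per-plate limit, mean inhibition of low control wells plus 3 SD, cut at about 25% in these data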;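 note: 0% = DMSO wells with enzyme and 100% = wells lacking Arfgap1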
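System: truncated rat Arfgap1 GAP domain / Benchmarks: high control wells lacking Arfgap1, low control full reaction with DMSO / Times: compound-enzyme preincubation 20 min, reaction 120 min, detection 60 min, 25 °C / Repeats: one replicate per compound / Also added: human ARF1(Δ1-17)-GTP substrate / Measured by: Tracer-displacement fluorescence polarization with EDTA stop, 620/688 nm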
NRP1-CendR mod: NRP-1/CendR interaction modulation. FAM-RPARPAR peptide binding to NRP-1, fluorescence polarization. inhibition, % at 25 µM. actives 0.85% (n = 360,000). AID 602438;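 active = inhibition or corrected inhibition above about 18%, plus a signal ratio from 0.5 to 1.5, limit read from the data, passing the limit was not always enough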
ASAP1 inh: inhibitors of human ASAP1 ArfGAP activity; inhibition, % at 16.5 µM; ASAP1-stimulated ARF1 GTP hydrolysis, GDP FP detection; actives 0.19% (n = 360,000); AID 624377; Q9ULH1; in the data active = inhibition above about 25%;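 note: 0% = vehicle with enzyme and substrate and 100% = no enzyme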
MC4R ag barr: human MC4R agonism via beta-arrestin; P32245; U2OS MC4R beta-arrestin complementation, luminescence; percent of melanotan II response, DMSO zero; activation, % at 8.9 µM; actives 0.98% (n = 360,000); AID 540308;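 active = activation above a per-plate cutoff, the mean activation of sample wells on that plate plus 3 SD, cut at about 8% in these data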
U2OS cAMP counter: nonselective cAMP signaling inhibitor, MC4R antagonist counter-screen. shares compounds with MC4R antag cAMP. parental U2OS, forskolin cAMP, LANCE TR-FRET. inhibition, % at 6.5 µM. actives 26% (n = 1,600). AID 602193;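 active = mean inhibition over triplicates above the low-control well mean plus 3 SD, set per campaign, cut at about 13% in these data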;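 note: signal is single emission at 671 nm which falls as cellular cAMP rises; 0% = forskolin-stimulated wells and 100% = buffer without forskolin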
MC4R antag conf: human MC4R cAMP antagonism confirmation; AID 602195; MC4R-expressing cells, MTII-stimulated cAMP, TR-FRET; shares compounds with MC4R antag cAMP; inhibition, % at 6.5 µM; actives 27% (n = 1,600); in the data active = inhibition above about 29%;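 note: 0% = agonist stimulated wells alone and 100% = agonist stimulated wells plus saturating reference antagonist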
The depositor's hits bear a star; x = no result given.

item | SMILES | Yeast UUG start | MC4R antag cAMP | ARFGAP1 inhibitor | NRP1-CendR mod | ASAP1 inh | MC4R ag barr | U2OS cAMP counter | MC4R antag conf
1 | O=C(C[C@H]1C[C@H]2c3cc(NC(=O)C4CCC4)ccc3O[C@H]2[C@H](CO)O1)NCc1ccccc1 | -9.2 | x | x | x | x | x | x | x
2 | O=C(Nc1ccccc1)N1CCc2c([nH]c3ccccc23)C1C(F)(F)F (centres undefined) | 9.8 | 35.0* | 9.8 | 1.3 | 15.4 | 0.7 | -3.2 | -2.6
3 | CCOC(=O)N(C)C[C@H]1OCc2ccccc2-c2ccccc2C(=O)N([C@H](C)CO)C[C@@H]1C | -0.8 | x | x | x | x | x | x | x
4 | COc1ccc(C#Cc2ccc3c(c2)[C@H]2[C@H](CCN2S(=O)(=O)c2ccc(OC)cc2)[C@@H](CO)N3C)cc1 | -21.5 | x | x | x | x | x | x | x
5 | CCOC(=O)Cn1nnnc1CN(Cc1ccccc1)Cc1cc2cc(CC)ccc2[nH]c1=O | x | 29.7* | -12.9 | -1.7 | -11.9 | 2.5 | 2.6 | -0.3
6 | CS(=O)(=O)c1ccccc1C(=O)Nc1cc(Cl)ccc1-n1cncn1 | -17.9 | 3.8 | -8.9 | -1.4 | -8.8 | -1.9 | x | x
7 | O=C(Nc1cc(Cl)ccc1-n1cncn1)c1cc(F)c(F)c(F)c1F | -6.5 | 30.6* | -2.2 | -0.3 | -6.5 | 1.5 | 24.1* | 50.4*
8 | COc1ccc(NC(=O)c2cccc(-n3c(C)ccc3C)c2)c(OC)c1 | x | 28.9* | -5.8 | -30.1 | -7.8 | -1.1 | 0.6 | -4.0
9 | COc1cc(OC)cc(C(=O)N2CCN(Cc3ccccc3[N+](=O)[O-])CC2)c1 | x | 28.7* | 7.7 | -3.4 | 17.0 | 2.5 | -1.6 | -8.6
10 | C[C@@H]1CN([C@@H](C)CO)C(=O)c2cccc(NC(=O)C3CCOCC3)c2O[C@@H]1CN(C)S(=O)(=O)c1cn(C)cn1 | -16.8 | x | x | x | x | x | x | x

item | SMILES | Yeast UUG start | MC4R antag cAMP | ARFGAP1 inhibitor | NRP1-CendR mod | ASAP1 inh | MC4R ag barr | U2OS cAMP counter | MC4R antag conf
11 | NC(COCc1ccccc1)c1csc(Nc2nncc3ccccc23)n1 (centres undefined) | -13.5 | 0.5 | 9.2 | -15.7 | -10.2 | 5.7 | x | x
12 | NC(Cc1ccc(C(F)(F)F)cc1)c1csc(Nc2nncc3ccccc23)n1 (centres undefined) | -14.2 | 35.3* | 14.8 | -17.0 | 2.0 | 1.6 | 21.3* | 0.3
13 | COc1ccc(-c2csc(NC(=O)c3ccc(N4C(=O)CCC4=O)cc3)n2)cc1 | -8.9 | 50.5* | 1.3 | 4.9 | -4.4 | 1.3 | 24.8* | 41.6*
14 | FC(F)(F)c1cnc(Oc2cccc3ccccc23)c(Cl)c1 | x | 29.4* | 4.1 | 8.3 | -9.2 | 1.7 | -2.0 | -5.8
15 | COc1ccccc1CC(=O)N1CCCC(CCC(=O)NCc2ccccc2F)C1 (centres undefined) | 5.0 | -3.6 | -5.4 | 9.3 | 9.1 | 1.6 | x | x
16 | Cc1ccnn1CCC(=O)N1CCCC(CCC(=O)NCc2ccccc2F)C1 (centres undefined) | x | 29.2* | -1.3 | 0.6 | 0.1 | 0.6 | -0.2 | 3.3
17 | Cc1ccc([C@H]2C(C#N)=C(N)Oc3cc(C)oc(=O)c32)o1 | x | 30.4* | -2.7 | -11.6 | -3.8 | 0.2 | -1.8 | -8.0
18 | C[C@@H]1CCCCO[C@@H](CN(C)C(=O)c2ccccc2)[C@@H](C)CN([C@@H](C)CO)C(=O)c2cc(N(C)C)ccc2O1 | 27.8 | x | x | x | x | x | x | x
19 | COc1cccc(CNC(=O)C[C@@H]2CC[C@@H](NC(=O)C3CCC3)[C@@H](CO)O2)c1 | -3.5 | x | x | x | x | x | x | x
20 | COc1ccccc1CNCc1cc(OC)c(OC)c(OC)c1 | -1.7 | 30.2* | -2.6 | 1.4 | -2.4 | -1.4 | 0.4 | -6.5

Some of the entries so far, with values under each structure:
Order of values: Yeast UUG start	MC4R antag cAMP	ARFGAP1 inhibitor	NRP1-CendR mod	ASAP1 inh	MC4R ag barr	U2OS cAMP counter	MC4R antag conf
16) Cc1ccnn1CCC(=O)N1CCCC(CCC(=O)NCc2ccccc2F)C1 (centres undefined)
 : x	29.2*	-1.3	0.6	0.1	0.6	-0.2	3.3
17) Cc1ccc([C@H]2C(C#N)=C(N)Oc3cc(C)oc(=O)c32)o1
 : x	30.4*	-2.7	-11.6	-3.8	0.2	-1.8	-8.0

Next part.
item | SMILES | Yeast UUG start | MC4R antag cAMP | ARFGAP1 inhibitor | NRP1-CendR mod | ASAP1 inh | MC4R ag barr | U2OS cAMP counter | MC4R antag conf
21 | O=C(NCCCO)C(=O)NCc1ccccn1 | -18.7 | 30.0* | -7.4 | -2.3 | 4.2 | 0.9 | 2.1 | 8.4
22 | C[C@H](NC(=O)C[C@@H]1CC[C@H]2[C@@H](COC[C@@H](O)CN2Cc2cc(F)ccc2F)O1)c1ccccc1 | 8.6 | x | x | x | x | x | x | x
23 | CC(=O)c1sccc1NC(=O)c1ccccc1C(=O)O | -8.0 | 71.8* | -0.8 | -0.1 | -0.7 | 0.1 | 29.3* | 60.9*
24 | COC(=O)c1sccc1NC(=O)c1ccccc1C(=O)O | x | 6.2 | -3.4 | 10.0 | 9.9 | 2.5 | x | x
25 | COCC#Cc1ccc2c(c1)O[C@H](CN(C)S(=O)(=O)c1cccc(F)c1)[C@@H](C)CN([C@@H](C)CO)S2(=O)=O | -5.7 | x | x | x | x | x | x | x
26 | CCCCCCCN(c1ccccc1)[C@@H]1C[C@H]2CCCC(=O)N3CC[C@@H](C1)[C@@H]23 | -7.0 | 33.8* | -11.4 | 5.7 | -2.2 | 3.7 | -6.6 | 33.8*
27 | Cc1cccc(C)c1NC(=O)c1sc(N)nc1-c1ccccc1 | 27.9 | 29.9* | 5.8 | 3.1 | 4.9 | 1.3 | -2.9 | 5.4
28 | Cc1ccc(NC(=O)c2sc(N)nc2-c2ccccc2)cc1C | x | 2.4 | 8.6 | -8.3 | -4.0 | -0.5 | x | x
29 | Cc1ccc(NC(=O)c2noc3c2CCCCC3)cc1 | -27.8 | 14.2 | -2.7 | -2.8 | -0.9 | 1.2 | x | x
30 | Cc1ccc(O)c(NC(=O)c2noc3c2CCCCC3)c1 | 20.4 | 30.8* | 9.9 | -7.7 | -6.6 | -1.6 | -3.2 | -10.3

3 compounds already listed, ordered by their value in ASAP1 inh, highest first:
cpd	canonical_smiles	ASAP1 inh
24	COC(=O)c1sccc1NC(=O)c1ccccc1C(=O)O	9.9
28	Cc1ccc(NC(=O)c2sc(N)nc2-c2ccccc2)cc1C	-4.0
11	NC(COCc1ccccc1)c1csc(Nc2nncc3ccccc23)n1 (centres undefined)	-10.2

(more compounds)
item | SMILES | Yeast UUG start | MC4R antag cAMP | ARFGAP1 inhibitor | NRP1-CendR mod | ASAP1 inh | MC4R ag barr | U2OS cAMP counter | MC4R antag conf
31 | Cc1noc(C)c1S(=O)(=O)Nc1ccc2c(c1)C(=O)N([C@@H](C)CO)C[C@@H](C)[C@@H](CN(C)C(=O)NC(C)C)OCCCC[C@H](C)O2 | -0.6 | x | x | x | x | x | x | x
32 | N=c1c2c(ncn1Cc1ccco1)Oc1cc(O)ccc1C2c1ccccc1 (centres undefined) | -17.7 | 33.1* | 18.9 | -109.3 | 8.3 | -0.3 | -0.5 | -1.1
33 | CC(C)C1Cc2ccccc2-c2[nH]c(=S)[nH]c(=O)c21 (centres undefined) | -19.6 | 36.5* | -0.2 | 2.5 | -3.6 | 4.2 | 20.8* | 48.3*
34 | CCC1(CC)Cc2ccccc2-c2[nH]c(=S)[nH]c(=O)c21 | x | 20.3 | 5.4 | -2.7 | -4.6 | 2.8 | x | x
35 | C[C@@H]1CN([C@@H](C)CO)C(=O)c2cccc(NC(=O)Nc3ccccc3)c2O[C@H]1CN(C)CC1CC1 | -14.7 | x | x | x | x | x | x | x
36 | CCCN1C[C@@H](C)[C@@H](OC)CN(C)C(=O)c2ccc(NC(=O)c3cccc(OC)c3)cc2OC[C@@H]1C | -0.7 | x | x | x | x | x | x | x
37 | COc1ccc(-c2c(C)[nH]n3c(=O)c(Cc4ccccc4)c(C)nc23)cc1OC | -21.8 | 30.7* | 8.8 | -1.6 | 4.5 | -2.9 | 1.7 | 6.8
38 | Cc1cc(C(=O)c2ccc(Cl)cc2)c(NC(=O)CCl)s1 | x | 40.6* | -6.2 | -4.0 | -1.1 | -0.3 | 23.6* | 64.9*
39 | O=C(N[C@@H]1CC[C@@H](CCNS(=O)(=O)c2ccc(F)cc2)O[C@@H]1CO)c1cccnc1 | -7.1 | x | x | x | x | x | x | x
40 | Cc1ccc(Nc2nnc(SC3CCOC3=O)s2)cc1 (centres undefined) | x | 5.9 | 10.4 | -0.8 | 2.8 | -1.9 | x | x
